Results as given in US4968609A, “Coryneform bacteria carrying recombinant DNA and a process for producing aromatic amino acids using said bacteria” (priority 1984, dated 1990).

System: 3-deoxy-D-arabinoheptulonic acid-7-phosphate synthetase (DS) of Brevibacterium lactofermentum AJ 11957
Test: DS activity of crude enzyme solution with amino acids added, strain AJ 11957
Settings: 1 mM each; crude enzyme of AJ 11957; activity with none added = 100%

SMILES: N[C@@H](Cc1ccc(O)cc1)C(=O)O [Tyrosine, tyrosine]
- Residual Activity When Each Amino Acid Was Added: 108%
